Measurements: article PMC10060577, “Synthesis and physicochemical characterization of acyl myricetins as potential anti-neuroexocytotic agents” (Scientific Reports, 2023)

What was measured:
[1] = Determination of 1-octanol/water partition coefficients (logP); type: physicochemical; details: for logP: 1-octanol/DDW, 25 °C
Description: Values for logP were determined to quantify the lipophilicity or hydrophilicity of the separated acyl myricetins, using the previously reported method with slight modifications. After the addition of 1-octanol (500 μL) into 2 mL micro-tubes containing 1 mg of the separated acyl myricetins, the micro-tubes were vortexed for 1 min, followed by sonication (bath-type) for 5 min, and then 500 μL of DDW was added to the tubes. Next, the mixed solutions in the tubes were vortexed again for 5 min and phase-separated by centrifugation (3000 relative centrifugal force for 10 min at 25 °C). The 40 μL of upper layer (1-octanol) and 100 μL of lower layer (DDW) were collected and diluted with 1.96 mL of 1-octanol and 100 μL of DMSO, respectively. The solutes dissolved in the upper and lower layers were quantified based on the standard curves obtained from the UV/Vis-light absorbance spectra (250‒600 nm) using a microplate reader (Synergy H1; BioTek Instruments Inc., VT, USA; measuring interval of 3 nm, at 25 °C). Finally, the logP values were calculated as log(coctanol/cDDW), where coctanol and cDDW are the concentrations of the solutes in the upper and lower layers, respectively.

PC-12 cells = assay: Neutral red uptake (NRU) cytotoxicity assay; type: cell-based; details: 12 h incubation
Description: PC-12 cells, obtained from Korean Cell Line Bank (KCLB, Seoul, Korea), were cultured in media containing 84% (v/v) RPMI 1640 medium, 10% (v/v) heat-inactivated horse serum, 5% (v/v) heat-inactivated FBS, and 1% (v/v) antibiotic-antimycotic (100×) solution, under humidified conditions (37 °C, 5% CO2). The culture medium was refreshed every other day. Prior to further experiments, the viability of the cells in passages 1-5 was assessed using the trypan blue exclusion test. Harvested PC-12 cells (~ 80% confluency per well) were seeded into 96-well plates coated with type I-collagen and grown in the culture media for one day (37 °C, 5% CO2). Cells were treated with media containing the acyl […] incubated for 12 h. The media were aspirated, and cells were then incubated for 2 h with 0.33% (w/v) neutral red dissolved in the media. After the incubation, the neutral red media were carefully withdrawn, and cells were rinsed twice with PBS at 37 °C and dried for 1 h. Next, neutral red contained in the dried cells was extracted and solubilized with a solution of 50% (v/v) ethanol, 49% (v/v) DDW, and 1% (v/v) acetic acid, by incubating for 10 min. Absorbance of the neutral red-containing solution at 540 nm was recoded using the Synergy H1. Cell viability was determined based on the absorbance of treated cells compared to that of untreated cells (without acyl […]).

| Substance | logP [1] | times more lipophilic than free myricetin ([1]; based on logP) | CC50 (PC-12 cells) | fold more lipophilic than MP1 ([1]; based on logP) | fold more lipophilic than MP2 ([1]; based on logP) |
| --- | --- | --- | --- | --- | --- |
| dipropionyl-myricetin [MP2] | 2.42 ± 0.23 | 12.0 fold | 58.4 ± 1.6 µM |  |  |
| monooctanoyl-myricetin [MO1] | 2.76 ± 0.29 | 26.3 fold | 59 ± 1.4 µM | 3.5 fold | 2.2 fold |
| monopropionyl-myricetin [MP1] | 2.21 ± 0.16 | 7.4 fold | 54.6 ± 0.6 µM |  |  |
